Test results reported in PubChem BioAssay AID588692 (Broad Institute, 2011).
The list shows a part of the results, in another mix than the full data. Some salts or complexes appear as unconnected parts, following the source record. Activity calls are given as the source filed them.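 The calls were made as follows: active = mean luciferase reporter signal, scaled so untreated is 0 and the glycosylation-blocking control 100, at or above a set limit in every replicate; inconclusive = mean reaches the limit but not every replicate does; inactive = mean below the limit.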

Assay: D54 reporter luminescence gain compounds – D54 ERlucT cells, set 2, N-linked glycosylation inhibitor project, primary screen (AID 588692);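 also: luciferase carries N-glycosylation sites so blocking glycosylation raises the light; 0% = median of neutral control wells and 100% = median of 100 nM tunicamycin wells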
Conditions: D54 ERlucT glycosylation luciferase reporter, 24 h; at 12.5 µM; stronger effect = higher value; percent of 100 nM tunicamycin response
For `COc1ccccc1OP(C)(=O)Nc1ccc(C)c(C)c1` (centres undefined), the reporter increase was inactive: -0.627%. With `COc1ccc(OP(C)(=O)Nc2ccccc2Br)cc1` (centres undefined) the reporter increase was inactive: 0.867%. For `O=C1C(O)=C([N+](=O)[O-])C(=O)C(O)=C1[N+](=O)[O-]`, the reporter increase was inactive: -0.766%. With `Cc1cc(C)cc(OP(C)(=O)Nc2cccc(C(F)(F)F)c2)c1` (centres undefined) the reporter increase was inactive: 1.65%. For `CP(=O)(OCCOc1ccccc1)OCCOc1ccccc1`, the reporter increase was inactive: 1.66%. For `CCCCCCCCCCCCCCCC1C[N+](C)(C)CCOP(C)(=O)O1` (centres undefined), the reporter increase was inactive: -18.5%. In the case of `CP(=O)(Nc1ccc(Cl)cc1Cl)Oc1ccccc1` (centres undefined), the reporter increase is reported as inactive: 0.122%. For `COc1ccc(OP(C)(=O)Nc2ccccn2)cc1` (centres undefined), the reporter increase was inactive: 1.06%. For `CN(C)CCOC(=O)C(O)(c1ccccc1)C1CCCC1` (centres undefined), the reporter increase was inactive: -3.58%. With `COc1ccccc1OP(C)(=O)Nc1ccc(Br)cc1` (centres undefined) the reporter increase was inactive: 0.362%. In the case of `CP(=O)(Nc1ccccn1)Oc1ccccc1` (centres undefined), the reporter increase is reported as inactive: -1.4%. In the case of `COc1ccccc1OP(C)(=O)Nc1ccc(C)cc1C` (centres undefined), the reporter increase is reported as inactive: 1.91%. With `CCc1ccc(OP(C)(=O)O)cc1` the reporter increase was inactive: 3.18%. In the case of `O=[N+]([O-])c1cc([N+](=O)[O-])c(Nc2ccccn2)c([N+](=O)[O-])c1`, the reporter increase is reported as inactive: 1.83%. For `Cc1c(NP(C)(=O)Oc2ccc(C(C)C)cc2)c(=O)n(-c2ccccc2)n1C` (centres undefined), the reporter increase was inactive: -1.01%. For `COc1ccccc1OP(C)(=O)Nc1c(C)n(C)n(-c2ccccc2)c1=O` (centres undefined), the reporter increase was inactive: 2.16%. For `O=C(OCCCN1CCCC1)C(O)(c1ccccc1)C1CCCCC1` (centres undefined), the reporter increase was inactive: -0.967%. In the case of `CP(=O)(Oc1ccccc1)N1CCOC1=O` (centres undefined), the reporter increase is reported as inactive: -0.0745%. For `CCc1ccc(OP(C)(=O)Nc2cccnc2)cc1` (centres undefined), the reporter increase was inactive: 1.36%. In the case of `CCN(CC)CC(O)COC(=O)C(O)(c1ccccc1)C1CCCCC1` (centres undefined), the reporter increase is reported as inactive: -0.348%. In the case of `COc1ccc(OP(C)(=O)Nc2ccc(Br)cc2)cc1` (centres undefined), the reporter increase is reported as inactive: 0.334%. With `CN(C)C(=O)c1c([N+](=O)[O-])cc([N+](=O)[O-])cc1[N+](=O)[O-]` the reporter increase was inactive: 3.17%. With `CC(C)(C)c1ccc(OP(C)(=O)O)cc1` the reporter increase was inactive: 0.619%. For `COc1ccccc1OP(C)(=O)Nc1ccccc1Br` (centres undefined), the reporter increase was inactive: 2.17%. For `CP(=O)(Nc1ccc(Cl)cc1)Oc1ccc(F)cc1` (centres undefined), the reporter increase was inactive: 0.792%. For `CCOC(=O)c1ccc(NP(C)(=O)Oc2ccc(Cl)cc2)cc1` (centres undefined), the reporter increase was inactive: 7.72%. For `CP(=O)(OC12CC3CC(CC(C3)C1)C2)OC12CC3CC(CC(C3)C1)C2`, the reporter increase was inactive: -0.965%. With `CN(C)CCOC(=O)C(O)(c1ccccc1)C1CCCCC1` (centres undefined) the reporter increase was inactive: -1.75%. In the case of `COc1ccc(NP(C)(=O)Oc2ccccc2OC)cc1` (centres undefined), the reporter increase is reported as inactive: 3.5%. In the case of `COc1ccc(OP(C)(=O)Nc2cccc(Br)c2)cc1` (centres undefined), the reporter increase is reported as inactive: 0.446%. In the case of `Cc1c(C(c2ccc3c(c2)OCO3)c2c(C)n(C)n(-c3ccccc3)c2=O)c(=O)n(-c2ccccc2)n1C.O=[N+]([O-])c1cc([N+](=O)[O-])c(O)c([N+](=O)[O-])c1`, the reporter increase is reported as inactive: 0.255%. With `O=[N+]([O-])c1ccc(OP2(=O)COCCO2)cc1` (centres undefined) the reporter increase was inactive: 1.6%. With `Cc1cc(-c2cccc3ccccc23)c(C)cn1.O=[N+]([O-])c1cc([N+](=O)[O-])c(O)c([N+](=O)[O-])c1` the reporter increase was inactive: 6.71%. For `O=[N+]([O-])c1cc([N+](=O)[O-])c(NCC2CCS(=O)(=O)C2)c([N+](=O)[O-])c1` (centres undefined), the reporter increase was inactive: -0.95%. In the case of `CCOP(C)(=S)SCC(=O)NC(C)(CC)C(=O)O` (centres undefined), the reporter increase is reported as inactive: 3.02%. In the case of `CP(=O)(Nc1ccc(SC(F)(F)F)cc1)Oc1ccc(F)cc1` (centres undefined), the reporter increase is reported as inactive: -2.56%. In the case of `Cc1ccccc1NP(C)(=O)Nc1ccccc1C`, the reporter increase is reported as inactive: 0.65%. In the case of `CP(=O)(Nc1ccc2c(c1)OCCO2)Oc1ccccc1` (centres undefined), the reporter increase is reported as inactive: -0.386%. For `CP(=O)(Nc1ccccc1F)Oc1ccccc1` (centres undefined), the reporter increase was inactive: 1.52%. With `CC(C)c1ccc(OP(C)(=O)Nc2ccc(SC(F)(F)F)cc2)cc1` (centres undefined) the reporter increase was inactive: 3.4%. For `O=[N+]([O-])c1cc([N+](=O)[O-])c(Nc2ccc(Cl)cc2)c([N+](=O)[O-])c1`, the reporter increase was inactive: 0.965%. In the case of `COc1ccc2c(c1O)-c1c(O)c(OC)cc3c1[C@H](C2)[N+](C)(C)CC3.O=[N+]([O-])c1cc([N+](=O)[O-])c([O-])c([N+](=O)[O-])c1[O-]`, the reporter increase is reported as inactive: 5.03%. With `O=C(OC1CN2CCC1CC2)c1ccc([N+](=O)[O-])cc1` (centres undefined) the reporter increase was inactive: -2.78%. In the case of `O=C(OCCN1CCN(CCOCc2ccccc2)CC1)C(O)(c1ccccc1)c1ccccc1`, the reporter increase is reported as inactive: -2.86%. For `CCOC(=O)c1ccc(NP(C)(=O)Oc2ccc(F)cc2)cc1` (centres undefined), the reporter increase was inactive: 2.98%. In the case of `COc1ccc(OP(C)(=O)Nc2ccc(SC(F)(F)F)cc2)cc1` (centres undefined), the reporter increase is reported as inactive: -0.979%. With `CP(=O)(Nc1ccccc1)Oc1ccc(F)cc1` (centres undefined) the reporter increase was inactive: 1.17%. With `CCCCCOc1ccc(NP(C)(=O)Oc2ccc(Cl)cc2Cl)cc1` (centres undefined) the reporter increase was inactive: -1.58%. For `O=[N+]([O-])c1cc([N+](=O)[O-])c(OC2CCCCC2O)c([N+](=O)[O-])c1` (centres undefined), the reporter increase was inactive: 4.75%. In the case of `Cc1c([N+](=O)[O-])cc([N+](=O)[O-])c(Br)c1[N+](=O)[O-]`, the reporter increase is reported as inactive: 0.624%. In the case of `O=C(O)c1cccc(Nc2c([N+](=O)[O-])cc([N+](=O)[O-])cc2[N+](=O)[O-])c1`, the reporter increase is reported as inactive: 1.46%. In the case of `CC1=NCCc2c1[nH]c1ccccc21.O=[N+]([O-])c1cc([N+](=O)[O-])c(O)c([N+](=O)[O-])c1`, the reporter increase is reported as inactive: -2.66%. With `CCOC(=O)c1ccc(NP(C)(=O)Oc2cc(C)cc(C)c2)cc1` (centres undefined) the reporter increase was inactive: -0.585%. With `Cc1cc(C)cc(OP(C)(=O)Nc2ccc(C)cc2C)c1` (centres undefined) the reporter increase was inactive: 0.65%. With `COc1ccccc1OP(C)(=O)Nc1cccc(Br)c1` (centres undefined) the reporter increase was inactive: 1.23%. In the case of `Cc1ccc(C)c(NP(C)(=O)Oc2ccccc2)c1` (centres undefined), the reporter increase is reported as inactive: 0.017%. With `CP(=O)(Nc1cccc(Br)c1)Oc1ccccc1` (centres undefined) the reporter increase was inactive: -0.919%. In the case of `Cc1cc(C)cc(OP(C)(=O)Nc2ccccn2)c1` (centres undefined), the reporter increase is reported as inactive: -0.101%. For `CN(Cc1cccnc1)C(=O)COc1ccc(Cl)c(Cl)c1.O=[N+]([O-])c1cc([N+](=O)[O-])c(O)c([N+](=O)[O-])c1`, the reporter increase was inactive: -1.18%.
